# Yeast mating assay 2: variants of the scFv Ab-95

The measurements come from Engelhart et al. 2022 (doi:10.1038/s41597-022-01779-4) through the FLAb antibody collection.

All variants were tested on one target, the spike HR2 peptide PDVDLGDISGINAS (SARS-CoV-2).

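The starting antibody came from a phage panning campaign against this peptide. In library AAYL52, one, two or three CDR residues were substituted; doubles and triples were drawn at random. AlphaSeq pools MATa yeast showing the antibodies with MATalpha yeast showing the peptide. The frequency of each diploid, read from paired DNA barcodes, reflects how well the two displayed proteins bind. Each replicate has its own calibration line, from reference interactions of the BCL2 family. Each pool was mated in three replicate cultures.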

Parent scFv Ab-95: VH joined to VL by three GGGGS repeats. Changes lie in the light chain CDRs alone.
VH: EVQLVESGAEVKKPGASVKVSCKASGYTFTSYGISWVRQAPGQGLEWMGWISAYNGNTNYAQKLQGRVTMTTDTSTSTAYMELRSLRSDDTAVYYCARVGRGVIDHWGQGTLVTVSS
VL: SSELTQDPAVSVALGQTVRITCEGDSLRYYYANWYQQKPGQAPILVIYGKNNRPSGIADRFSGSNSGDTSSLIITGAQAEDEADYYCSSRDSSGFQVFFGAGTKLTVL

Changes read parent residue, position, new residue, counted from the first residue of the VL shown.
This list gathers variants with a substitution at F98 (VL, numbered from residue 1).
The Kd shown is the geometric mean over detected replicates; a lower Kd is a better binder.
"nd" marks a missing value. The strain was present, yet no cells mated with the target were sequenced in any replicate, which points to weak or no binding.
For reference, the parent read 200 nM as the reference entry and 180 nM as a member of this library.
Nonspecific signal, from three strains lacking the peptide, appeared in 28% of pairings of library AAYL52, centred on 8.2 µM (5% of these signals below 800 nM); values are not corrected for it.

Variant Y30K/S89E/F98Q gave 86 nM (3 of 3 replicates). With Y30Q/R53F/F98D the result was 1.2 µM (3 of 3 replicates). For Y29C/A32W/F98V, the assay gave 21 µM (2 of 3 replicates). For G94F/Q96G/F98Y, the assay gave 12 µM (2 of 3 replicates). Variant Q96I/F98T gave 280 nM (3 of 3 replicates). Variant G94I/V97P/F98P gave nd (0 of 3 replicates). Variant P54S/F95N/F98V gave 740 nM (3 of 3 replicates). For N52A/R90F/F98K, the assay gave 34 µM (1 of 3 replicates). With Y30G/Q96E/F98A the result was 180 nM (3 of 3 replicates).

Variant N51V/N52E/F98Q showed 4.6 µM (3 of 3 replicates). Variant G24F/Y31W/F98P showed 200 nM (3 of 3 replicates). For Y29C/Y31P/F98R, the assay gave 3.0 µM (3 of 3 replicates). With Y31D/P54K/F98T the result was 1.1 µM (3 of 3 replicates). Variant N52H/F98C gave 3.8 µM (1 of 3 replicates). Variant D25I/Q96G/F98K gave 760 nM (3 of 3 replicates). For E23V/N33R/F98G, the assay gave 3.8 µM (2 of 3 replicates). For K50A/R90I/F98Q, the assay gave 220 µM (1 of 3 replicates). With R28E/N52D/F98R the result was 13 µM (2 of 3 replicates).

Variant Y29G/Q96E/F98S gave 14 µM (1 of 3 replicates). Variant Y29I/F98Y showed 31 µM (2 of 3 replicates). Variant Y31E/S89Y/F98V showed 40 nM (3 of 3 replicates). For Y31T/S88D/F98Q, the assay gave nd (0 of 3 replicates). Variant Y31S/F95S/F98W gave 120 nM (3 of 3 replicates). Variant A32Q/Q96T/F98R gave 3.8 µM (3 of 3 replicates). Variant R90F/S93M/F98V showed nd (0 of 3 replicates). With D25Q/F98G the result was 86 nM (3 of 3 replicates). For N52P/R53D/F98C, the assay gave 1.4 µM (2 of 3 replicates).

Variant R53Y/S88P/F98A gave 25 µM (1 of 3 replicates). With D25H/F98W the result was 280 nM (3 of 3 replicates). Variant K50W/S55V/F98D showed 36 µM (3 of 3 replicates). For L27H/Q96P/F98Y, the assay gave 3.0 µM (2 of 3 replicates). For R90P/F98H, the assay gave nd (0 of 3 replicates). Variant Y30G/V97E/F98C gave 35 nM (3 of 3 replicates). For L27E/G94N/F98K, the assay gave 2.0 µM (2 of 3 replicates). Variant S26M/S92I/F98D showed 12 µM (1 of 3 replicates). Variant L27W/N52F/F98R showed nd (0 of 3 replicates).

Variant Y30R/S88E/F98E gave 1.5 µM (3 of 3 replicates). With S89W/D91E/F98W the result was 100 nM (3 of 3 replicates). Variant N33S/F95R/F98H showed 1.2 µM (3 of 3 replicates). For S55G/V97M/F98D, the assay gave 570 nM (2 of 3 replicates). Variant Y29V/S93I/F98P showed 18 µM (2 of 3 replicates). For Y30H/G49D/F98M, the assay gave 21 nM (3 of 3 replicates). Variant G24M/Q96T/F98Y showed 16 µM (3 of 3 replicates).

The first 5 entries again:

For Y30K/S89E/F98Q, the assay gave 86 nM (3 of 3 replicates).
For Y30Q/R53F/F98D, the assay gave 1.2 µM (3 of 3 replicates).
For Y29C/A32W/F98V, the assay gave 21 µM (2 of 3 replicates).
For G94F/Q96G/F98Y, the assay gave 12 µM (2 of 3 replicates).
For Q96I/F98T, the assay gave 280 nM (3 of 3 replicates).